# Yeast mating assay 1: variants of the scFv Ab-14

Target peptide (SARS-CoV-2 spike, HR2 region): PDVDLGDISGINAS

Parent: Ab-14, a human scFv built as VH, a (GGGGS)3 linker, VL. Only the CDRs of the light chain vary.
VH: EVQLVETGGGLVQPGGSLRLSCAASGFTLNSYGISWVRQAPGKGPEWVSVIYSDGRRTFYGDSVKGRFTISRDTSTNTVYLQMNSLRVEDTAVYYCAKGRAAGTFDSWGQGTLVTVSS
VL: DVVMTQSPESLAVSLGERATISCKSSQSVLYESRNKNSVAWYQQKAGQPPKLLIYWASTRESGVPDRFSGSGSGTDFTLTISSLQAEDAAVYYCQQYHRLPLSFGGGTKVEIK

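The starting antibody came from a phage panning campaign against this peptide. Library AAYL50 holds single substitutions and randomly drawn double and triple substitutions in the CDRs. The assay is AlphaSeq: two haploid yeast populations carry antibody and antigen on their surface. Binding brings cells together so that they mate, and sequencing counts the barcode pairs among the diploids. The ratio of observed to expected reads was calibrated, replicate by replicate, on BCL2-family standards whose Kd was known from biolayer interferometry. The assay was run in three technical replicates.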

Variants are written as CDR1, CDR2 and CDR3 of the light chain (limits as in the source). Parent: KSSQSVLYESRNKNSVA, WASTRES, QQYHRLPLS. The read-out is the apparent dissociation constant on a log10 scale (nM): the lower, the stronger. Averages over replicates are reported, and they cover detected replicates only. "ND" means that the variant was in the library but no mating with the target was seen in that replicate; the authors take this as a sign of poor binding, and no number exists.

| # | CDR-L1 | CDR-L2 | CDR-L3 | log10 Kd, replicates | mean, log10 nM | signal with controls |
|---|---|---|---|---|---|---|
| 1 | KSSQSVMYESRNKNSVN | WASTRES | QYYHRLPLS | ND / ND / 3.43 | 3.43 | 2 of 9 (3.63) |
| 2 | KSSQSVLYEYDNKNSVA | WASTRES | QQYHRLPAS | 2.06 / 1.73 / 2.10 | 1.96 | 0 of 9 |
| 3 | KSSQSVLVESRNKNSVA | WASTRES | QQYHRLPHP | ND / ND / ND | ND | 3 of 9 (4.12) |
| 4 | ILSQSVLYESRNKNGVA | WASTRES | QQYHRLPLS | 0.69 / 0.81 / 0.65 | 0.72 | 0 of 9 |
| 5 | KSSQSVLYESRAKNSVA | WASTREG | QQYHRLPLY | 3.64 / ND / 4.36 | 4.00 | 1 of 9 (2.59) |
| 6 | KSSQSVLYLSRNKQSVA | WASTRES | QQYWRLPLS | 1.70 / 1.44 / 1.49 | 1.54 | 1 of 9 (3.40) |
| 7 | KISQSVTYESRNKNSVA | WASTRES | RQYHRLPLS | 2.56 / 2.93 / 2.54 | 2.68 | 2 of 9 (2.83) |
| 8 | KSSLSVLYESRNKNSVA | WASTRES | QQCHRLPLS | 5.23 / ND / ND | 5.23 | 0 of 9 |
| 9 | KSSQSVLYESRNKNSVD | WASTEES | QQYHRGPLS | ND / ND / ND | ND | 0 of 9 |
| 10 | VSSQSVLYESRNTDSVA | WASTRES | QQYHRLPLS | 1.75 / 1.94 / 1.94 | 1.88 | 2 of 9 (4.97) |
| 11 | KSSQSVLYESRNKNSCA | ESSTRES | QQYHRLPLS | 0.28 / 0.48 / 0.41 | 0.39 | 1 of 9 (4.83) |
| 12 | KSSQSVLYESRNKNSVA | WASTRES | QEYKRLPAS | ND / 3.08 / ND | 3.08 | 3 of 9 (3.82) |
| 13 | KSSQSVLYESRNKNSVA | WASTRES | QQYHYLPLS | 2.80 / 2.40 / 3.15 | 2.78 | 3 of 9 (3.36) |
| 14 | KSSQSVLYESRNRYSVA | WASTRES | QQYHRFPLS | 1.49 / 1.81 / 1.91 | 1.74 | 0 of 9 |
| 15 | KSSQSMLYESRNKNSVA | WAQTRET | QQYHRLPLS | 1.42 / 2.50 / 1.65 | 1.86 | 0 of 9 |
| 16 | KSSQSVLYECRNKNSVD | WASTRES | QQYHRLPLE | ND / ND / ND | ND | 0 of 9 |
| 17 | KSSKSVLYESRNKNSVA | WASLRES | QQYHRPPLS | 1.66 / 1.86 / 1.87 | 1.80 | 0 of 9 |
| 18 | KSSQSDLYESRNKNSVA | WASTRES | QQYGRGPLS | 1.90 / 2.06 / 1.98 | 1.98 | 2 of 9 (5.73) |
| 19 | KSSQSMLYESRNKNSVY | WASTRES | QQYHRLPAS | ND / 4.25 / ND | 4.25 | 0 of 9 |
| 20 | KSSQSVLYESYNKNFVA | WASTTES | QQYHRLPLS | 4.64 / 2.64 / 2.92 | 3.40 | 4 of 9 (4.66) |
| 21 | KRSQSVLYESRNKNSGA | HASTRES | QQYHRLPLS | ND / ND / ND | ND | 1 of 9 (2.68) |
| 22 | KSSQSLLYESRFKNSVA | WASTRES | QQYHRPPLS | ND / ND / ND | ND | 1 of 9 (4.24) |
| 23 | KSSQSELYESPNKNSVA | WASTREM | QQYHRLPLS | -0.01 / 0.37 / 0.20 | 0.19 | 0 of 9 |
| 24 | KDSQSVLYESRNKKSVA | WASTRIS | QQYHRLPLS | 1.22 / 1.30 / 1.15 | 1.22 | 1 of 9 (5.09) |
| 25 | KSSNSFLYESRNKMSVA | WASTRES | QQYHRLPLS | ND / ND / ND | ND | 0 of 9 |
| 26 | KSPQSVLDESRNKNIVA | WASTRES | QQYHRLPLS | 5.88 / ND / 3.91 | 4.90 | 2 of 9 (3.44) |
| 27 | KSSQSVLYESFNKKSVA | WAMTRES | QQYHRLPLS | ND / ND / 4.10 | 4.10 | 0 of 9 |
| 28 | KSSQSVLYESRNKTSVA | WTSTRES | QSYHRLPLS | 3.51 / 2.88 / 2.79 | 3.06 | 2 of 9 (4.39) |
| 29 | KSSTSVLYESRYKNSVA | WASTRKS | QQYHRLPLS | ND / 3.34 / 5.72 | 4.53 | 1 of 9 (4.19) |
| 30 | KSSQVVLYESRNKNSVA | WASTRES | QQYHRLTSS | 1.93 / 1.53 / 2.10 | 1.85 | 3 of 9 (4.61) |
| 31 | KSSQSVLYESRNKNSVA | WASTRES | NQYHRMPLS | 2.41 / 2.14 / 2.27 | 2.27 | 5 of 9 (4.09) |
| 32 | KMSQSVLYESRNKNKVA | WASERES | QQYHRLPLS | 2.65 / ND / ND | 2.65 | 1 of 9 (3.16) |
| 33 | KFSQSVLYESRNANSVA | WASTRES | QQMHRLPLS | ND / 2.48 / ND | 2.48 | 0 of 9 |
| 34 | KSDQSVLYESRNKNSVA | WASTPEY | QQYHRLPLS | 2.93 / 2.43 / 2.84 | 2.73 | 2 of 9 (4.72) |
| 35 | KSSQSVLYWSRNKNSVA | WASTRES | QQYHRHPLL | ND / ND / ND | ND | 1 of 9 (3.41) |
| 36 | KSSQSVLHCSRNKNSHA | WASTRES | QQYHRLPLS | ND / ND / ND | ND | 0 of 9 |
| 37 | KSSQDVLYESRNKNSVA | WASTRES | QQYHRLFPS | ND / ND / ND | ND | 0 of 9 |
| 38 | KSSQSVLYESRNKNSVA | WAETRES | QQYGRLPES | ND / ND / ND | ND | 1 of 9 (5.15) |
| 39 | KSSISVLYYSRNKNWVA | WASTRES | QQYHRLPLS | 3.80 / ND / ND | 3.80 | 3 of 9 (4.47) |
| 40 | ASSQSVLCESRNKNSVA | WASTRES | QQYFRLPLS | ND / ND / ND | ND | 0 of 9 |
| 41 | KFSQSVLYESRTKNSVA | WASTRES | QDYHRLPLS | 0.63 / 1.04 / 0.70 | 0.79 | 1 of 9 (4.19) |
| 42 | KSSQSVLYESRNKNSVA | WASTREF | SQYQRLPLS | ND / ND / 3.09 | 3.09 | 1 of 9 (5.30) |
| 43 | KSSQSVLYESRNKNSVA | WASTRES | FQYHRLPLS | 0.71 / 0.87 / 0.72 | 0.77 | 1 of 9 (3.13) |
| 44 | KSSQSVLYESRNCDSVA | WAQTRES | QQYHRLPLS | 1.67 / 1.79 / 1.57 | 1.68 | 3 of 9 (5.07) |
| 45 | KSSQSVLYESRNKNSVA | WACTRES | PQYHRLPLW | ND / ND / ND | ND | 0 of 9 |
| 46 | KSSQSVLYENRNKFSVA | WASTRES | QQYHRLPLR | 2.84 / 3.06 / 2.85 | 2.91 | 4 of 9 (4.41) |
| 47 | KSSQSVLYESRNKNQVA | WASTRES | QEYHRLPLI | 2.64 / 2.51 / 2.67 | 2.61 | 7 of 9 (4.79) |
| 48 | KSSQSVLYESRNKTSVA | WASTRES | QQPHRLPLM | 1.10 / 1.16 / 1.34 | 1.20 | 1 of 9 (3.78) |
| 49 | ASSQSVLYASRNKNSVA | WASTRES | QQYHALPLS | ND / ND / ND | ND | 3 of 9 (4.13) |
| 50 | GSSQPVLYESRRKNSVA | WASTRES | QQYHRLPLS | 3.58 / 3.17 / 4.05 | 3.60 | 1 of 9 (4.19) |

From the list, the first 8 with no signal in any replicate:

CDR-L1,CDR-L2,CDR-L3,"log10 Kd, replicates","mean, log10 nM",signal with controls
KSSQSVLVESRNKNSVA,WASTRES,QQYHRLPHP,ND / ND / ND,ND,3 of 9 (4.12)
KSSQSVLYESRNKNSVD,WASTEES,QQYHRGPLS,ND / ND / ND,ND,0 of 9
KSSQSVLYECRNKNSVD,WASTRES,QQYHRLPLE,ND / ND / ND,ND,0 of 9
KRSQSVLYESRNKNSGA,HASTRES,QQYHRLPLS,ND / ND / ND,ND,1 of 9 (2.68)
KSSQSLLYESRFKNSVA,WASTRES,QQYHRPPLS,ND / ND / ND,ND,1 of 9 (4.24)
KSSNSFLYESRNKMSVA,WASTRES,QQYHRLPLS,ND / ND / ND,ND,0 of 9
KSSQSVLYWSRNKNSVA,WASTRES,QQYHRHPLL,ND / ND / ND,ND,1 of 9 (3.41)
KSSQSVLHCSRNKNSHA,WASTRES,QQYHRLPLS,ND / ND / ND,ND,0 of 9

Nonspecific signal, from three strains lacking the peptide, appeared in 18% of pairings of library AAYL50, centred on 4.19 (5% of these signals below 2.99); values are not corrected for it. The control count says in how many pairings with the empty strains this scFv gave a signal, with their mean in brackets. Parent in this assay: reference entry 0.65, copy in this library 1.68.

The measurements come from Engelhart et al. 2022 (doi:10.1038/s41597-022-01779-4) through the FLAb antibody collection.